Experimental data reported in ChEMBL document CHEMBL1130618, “A novel and practical route to A-ring enyne synthon for 1 alpha,25-dihydroxyvitamin D3 analogs: synthesis of A-ring diastereomers of 1 alpha,25-dihydroxyvitamin D2 and 3-methyl-1,25-dihydroxyvitamin D3” (1998).

What was measured:
[1] = molecular target: T1, Vitamin D-binding protein (Homo sapiens) (UniProt P02774); experiment: Binding affinity for Vitamin D binding protein relative to 1-alpha, 25-dihydroxyvitamin D3; conditions: Bos taurus
T1 sequence (whole entry): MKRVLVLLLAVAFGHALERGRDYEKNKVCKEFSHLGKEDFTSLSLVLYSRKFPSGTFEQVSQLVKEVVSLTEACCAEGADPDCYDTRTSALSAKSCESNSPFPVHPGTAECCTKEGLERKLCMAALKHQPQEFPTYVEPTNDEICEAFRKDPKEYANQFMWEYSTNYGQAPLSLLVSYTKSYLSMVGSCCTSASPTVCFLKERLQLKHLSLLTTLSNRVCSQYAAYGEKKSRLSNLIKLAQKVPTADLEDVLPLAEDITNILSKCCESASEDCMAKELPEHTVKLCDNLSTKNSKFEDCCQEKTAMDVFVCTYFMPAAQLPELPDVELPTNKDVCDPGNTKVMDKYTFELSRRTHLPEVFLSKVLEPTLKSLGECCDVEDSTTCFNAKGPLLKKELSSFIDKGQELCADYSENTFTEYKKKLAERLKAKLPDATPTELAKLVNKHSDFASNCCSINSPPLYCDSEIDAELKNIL

[2] = molecular target: T2, Vitamin D3 receptor (Bos taurus) (UniProt Q28037); experiment: Binding affinity for bovine thymus Vitamin D3 receptor (VDR) relative to 1-alpha, 25-dihydroxyvitamin D3
T2 sequence (whole entry): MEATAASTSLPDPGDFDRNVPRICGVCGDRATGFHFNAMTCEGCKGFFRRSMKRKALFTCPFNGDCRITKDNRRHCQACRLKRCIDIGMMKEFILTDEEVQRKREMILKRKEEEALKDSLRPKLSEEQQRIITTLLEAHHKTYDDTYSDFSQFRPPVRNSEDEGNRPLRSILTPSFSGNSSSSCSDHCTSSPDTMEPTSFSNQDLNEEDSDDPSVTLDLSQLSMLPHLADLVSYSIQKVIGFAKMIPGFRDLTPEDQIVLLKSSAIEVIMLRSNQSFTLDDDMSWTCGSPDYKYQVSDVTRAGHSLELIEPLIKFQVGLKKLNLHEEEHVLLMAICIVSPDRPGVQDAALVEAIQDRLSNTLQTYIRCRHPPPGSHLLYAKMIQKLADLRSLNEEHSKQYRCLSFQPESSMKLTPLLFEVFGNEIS

Row | Structure (SMILES) | Relative potency [1] | Relative potency [2]
1 | C=C1/C(=C\C=C2/CCC[C@]3(C)[C@@H]([C@H](C)CCCC(C)(C)O)CC[C@@H]23)C[C@H](O)[C@@H](C)[C@H]1O | 1300 | 0.8
2 | C=C1/C(=C\C=C2/CCC[C@]3(C)[C@@H]([C@H](C)CCCC(C)(C)O)CC[C@@H]23)C[C@H](O)[C@H](C)[C@@H]1O | 45 | 4
3 | C=C1/C(=C\C=C2/CCC[C@]3(C)[C@@H]([C@H](C)CCCC(C)(C)O)CC[C@@H]23)C[C@@H](O)[C@H](C)[C@H]1O | 200 | < 0.1
4 | C=C1/C(=C\C=C2/CCC[C@]3(C)[C@@H]([C@H](C)CCCC(C)(C)O)CC[C@@H]23)C[C@@H](O)[C@@H](C)[C@H]1O | 1000 | < 0.1
5 | C=C1/C(=C\C=C2/CCC[C@]3(C)[C@@H]([C@H](C)CCCC(C)(C)O)CC[C@@H]23)C[C@H](O)[C@H](C)[C@H]1O | 1200 | < 0.1
6 | C=C1/C(=C\C=C2/CCC[C@]3(C)[C@@H]([C@H](C)CCCC(C)(C)O)CC[C@@H]23)C[C@@H](O)[C@H](C)[C@@H]1O | 68 | 400
7 | C=C1/C(=C\C=C2/CCC[C@]3(C)[C@@H]([C@H](C)CCCC(C)(C)O)CC[C@@H]23)C[C@H](O)[C@@H](C)[C@@H]1O | 21 | 0.3
8 | C=C1/C(=C\C=C2/CCC[C@]3(C)[C@@H]([C@H](C)CCCC(C)(C)O)CC[C@@H]23)C[C@@H](O)[C@@H](C)[C@@H]1O | 79 | 13
